# CycPeptMPDB entries from one study

Source: CycPeptMPDB (Li et al. 2023), which took these values from doi:10.1002/anie.201405364.

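Conditions beyond the assay type are not listed; see the original paper. The list need not hold all peptides of the study. Peptides that the database sets to -10, its floor, are left out.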

RRCK values come from monolayers of low-efflux MDCK cells. EPSA reports exposed polarity as measured by chromatography; lower is less polar. Permeability is given as log10 of P in cm/s; higher (less negative) is more permeable.

RRCK (log10 cm/s)	EPSA (Å2)	SMILES
-6.15	74	CC[C@H](C)[C@@H]1NC(=O)[C@@H]2CCCN2C(=O)[C@H](Cc2ccccc2)NC(=O)[C@H](C)NC(=O)c2csc(n2)[C@H]([C@@H](C)CC)NC(=O)[C@@H]2CCCN2C1=O
-6.22	77	CC[C@H](C)[C@@H]1NC(=O)[C@@H]2CCCN2C(=O)[C@H]([C@@H](C)CC)NC(=O)[C@@H]2CCCN2C(=O)[C@H](Cc2ccccc2)NC(=O)[C@H](C)NC(=O)[C@H](C)NC1=O